Values of other authors as cited in article PMC4961704, “Synthesis and Biological Evaluation of Thiophene-Based Cannabinoid Receptor Type 2 Radiotracers for PET Imaging” (Frontiers in Neuroscience, 2016).

Protein sequences, listed by entry. Tags and fused reporters are not part of them.
UniProt P34972, whole entry: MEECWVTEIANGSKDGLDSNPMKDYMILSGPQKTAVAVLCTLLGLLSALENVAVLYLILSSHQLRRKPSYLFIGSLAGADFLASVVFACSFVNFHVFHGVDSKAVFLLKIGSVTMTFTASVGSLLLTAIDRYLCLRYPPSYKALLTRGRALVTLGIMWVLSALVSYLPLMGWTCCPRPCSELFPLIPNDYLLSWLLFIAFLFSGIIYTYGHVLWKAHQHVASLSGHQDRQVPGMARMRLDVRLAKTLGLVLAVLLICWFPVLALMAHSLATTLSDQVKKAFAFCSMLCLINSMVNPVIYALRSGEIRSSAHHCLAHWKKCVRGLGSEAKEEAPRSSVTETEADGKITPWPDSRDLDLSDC

Target: T1, hCB2 (Homo sapiens, UniProt P34972)
T1 construct: purchased PerkinElmer; host or cells: CHO-K1 cells stably transfected
Design: method as in earlier work
Settings: known ligands, entry 1–3; ref Showalter et al., 1996; Lan et al., 1999; Valenzano et al., 2005; cited from earlier work

Cc1c(C(=O)NN2CCCCC2)nn(-c2ccc(Cl)cc2Cl)c1-c1ccc(I)cc1 [AM251]
Ki: 2290 ± 900 nM
